{
  "source": "patent US10000793B2",
  "about": "“Method for enumeration of mammalian cell micronuclei, while distinguishing chromatin of dead and dying cells” (priority 2004, dated 2018)",
  "key": {"L5178Y cells [1]": {"system": "L5178Y cells", "assay": "In vitro micronucleus test, flow cytometric (EMA/SYTOX) and microscopy scoring, L5178Y cells", "protocol": "L5178Y cells were treated over a range of chemical concentrations in culture medium, one 25 cm^2 flask per concentration. During treatment, cells were at 3×10^5/ml in a volume of 20 ml per flask (this high number of cells facilitated multiple readings per flask). After a 4 hr treatment period, cells were washed one time via centrifugation at 600×g, resuspended in a volume of 40 ml culture medium, and transferred to 75 cm^2 flasks. Cells were re-incubated at 37° C. for 20 additional hrs—the equivalent of two normal doubling times.\nIn this case, cultures (1.5×10^5 cells/ml, 40 ml/flask) were continuously exposed to chemical over a range of concentrations. […]\nSamples, stored for up to two days at 4° C., were gently tapped to resuspend the particles. […] SYTOX-associated fluorescence emission was collected in the FL1 channel (530/30 band-pass filter), and EMA-associated fluorescence was collected in the FL3 channel (670 long-pass filter). Events were triggered on FL1 fluorescence. The FCM gating strategy that was developed for this micronuclei scoring application required events to meet each of six separate criteria before they were scored as nuclei or micronuclei (see FIGS. 2A-H). The incidence of flow cytometric-scored micronuclei is expressed as frequency percent (no. micronuclei/no. nuclei×100), and are based on the acquisition of 20,000 EMA-negative nuclei per specimen. […]"}, "L5178Y cells [2]": {"system": "L5178Y cells", "settings": "short-term exposure, up to 5 mg/ml", "protocol": "Once L5178Y or CHO-K1 cells were collected as described above, cytotoxicity measurements were performed as follows: 0.5 ml of each culture was added to flow cytometry tubes containing fluorescein diacetate (“FDA”) (0.075 μg/ml), propidium iodide (“PI”) (25 μg/ml), and 2.5 μm Carmine 580/620 microspheres (Molecular Probes, Eugene, Oreg.). The concentration of these “counting beads” was determined with a hemacytometer. […] Relative survival was then calculated as follows: The number of FDA+ cells in each chemical treatment culture was expressed as a percentage of the number of FDA+ cells in the concurrent solvent control culture."}},
  "note": "Like-named read-outs stand apart in the source and are kept apart here.",
  "data": [
    {"smiles": "OC[C@H]1O[C@@](CO)(O[C@H]2O[C@H](CO)[C@@H](O)[C@H](O)[C@H]2O)[C@@H](O)[C@@H]1O", "note": "[Sucrose]", "values": [
      {"measurement": "MN Induction (≥3-fold)", "setting": "L5178Y cells [1]", "value": "No"},
      {"measurement": "genotoxicity (micronucleus induction)", "setting": "L5178Y cells [1]; L5178Y cells, short-term exposure (4 hr, 20 hr recovery), up to 5 mg/ml", "value": "neither cytotoxic nor genotoxic"},
      {"measurement": "cytotoxicity (relative survival)", "setting": "L5178Y cells [2]", "value": "significant cytotoxicity was not observed"},
      {"measurement": "cytotoxicity (relative survival)", "setting": "L5178Y cells [2]; listed as sucrose", "value": "neither cytotoxic nor genotoxic"}
    ]}
  ]
}
